Experiment [1] has as its target DR1 (Homo sapiens, UniProt P21728). The experiment can be described thus: DR1 agonism EC50 (Example B-1, Table 4). The experiment is classed as cell-based. The note with it: read-out: DR1 EC50. As to the method:
cAMP Assay: IPF patient derived fibroblasts are plated in EMEM containing 10% FBS overnight. […] Twenty minutes prior to cell lysis the media is removed and cells are treated with “induction buffer” containing nonselective phosphodiesterase inhibitors and the indicated concentration of compound(s). Luminescence is measured on a Flexstation 3 (Molecular Devices) plate reader.
(§1) Example B-1: Enzyme Assay of Inhibition of YAP/TAZ and DR1

Amino acid sequences for entries named in this document (tags omitted).
UniProt P21728, whole entry: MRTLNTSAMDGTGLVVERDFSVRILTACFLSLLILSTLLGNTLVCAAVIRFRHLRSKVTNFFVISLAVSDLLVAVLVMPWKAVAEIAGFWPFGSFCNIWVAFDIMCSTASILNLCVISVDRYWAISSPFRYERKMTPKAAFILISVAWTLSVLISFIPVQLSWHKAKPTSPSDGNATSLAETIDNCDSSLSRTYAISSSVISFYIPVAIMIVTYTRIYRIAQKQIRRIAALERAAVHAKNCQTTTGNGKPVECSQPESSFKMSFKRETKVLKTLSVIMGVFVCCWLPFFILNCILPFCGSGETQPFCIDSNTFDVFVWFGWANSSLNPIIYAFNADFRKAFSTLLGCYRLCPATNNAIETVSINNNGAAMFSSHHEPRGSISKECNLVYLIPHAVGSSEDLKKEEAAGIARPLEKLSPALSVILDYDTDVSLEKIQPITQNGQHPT

Experiment [2] concerns YAP/TAZ. As to the kind of experiment: Inhibition of YAP/TAZ (Example B-1, Table 4). The note with it: read-out: YAP/TAZ IC50.
Source text: as §1

`Oc1ccc(C2CNCc3ncccc32)cc1O` (centres unmarked): the EC50 in experiment [1] is less than 1 µM. For the same molecule, the IC50 in experiment [2] was in the range of 1 to 20 µM.

By EC50 is commonly meant the concentration at which the effect is half-maximal.

Values taken from patent US20220267277A1, “DOPAMINE RECEPTOR D1 AGONISTS AND METHODS OF USE” (Sanford Burnham Prebys Medical Discovery Institute, priority 2019, published 2022).
